Measurements reported in US8288416B2, “Substituted piperidinophenyl oxazolidinones” (Wockhardt Ltd., priority 2006, dated 2012).

Assay: Aqueous solubility
Type: physicochemical

With “Phosphoric acid mono-(1-{4-[(S)-5-(acetylamino-methyl)-2-oxo-oxazolidin-3-yl]-2,6-difluorophenyl}-4-methoxymethyl-piperidin-4-yl)ester L-lysine salt [Example 9]” the “Aqueous solubility at pH 7” value was greater than 200 mg/ml.
